The values that follow are results of earlier work, collected in publication PMC7565988, “Insight into the Anticancer Activity of Copper(II) 5-Methylenetrimethylammonium-Thiosemicarbazonates and Their Interaction with Organic Cation Transporters” (Biomolecules, 2020).

Usually IC50 stands for the concentration needed to halve the response being measured.

The series has as its target T1, OCT2 (Homo sapiens, UniProt O15244).
T1 construct: expressed in transfected cells
T1 sequence (O15244 1-555): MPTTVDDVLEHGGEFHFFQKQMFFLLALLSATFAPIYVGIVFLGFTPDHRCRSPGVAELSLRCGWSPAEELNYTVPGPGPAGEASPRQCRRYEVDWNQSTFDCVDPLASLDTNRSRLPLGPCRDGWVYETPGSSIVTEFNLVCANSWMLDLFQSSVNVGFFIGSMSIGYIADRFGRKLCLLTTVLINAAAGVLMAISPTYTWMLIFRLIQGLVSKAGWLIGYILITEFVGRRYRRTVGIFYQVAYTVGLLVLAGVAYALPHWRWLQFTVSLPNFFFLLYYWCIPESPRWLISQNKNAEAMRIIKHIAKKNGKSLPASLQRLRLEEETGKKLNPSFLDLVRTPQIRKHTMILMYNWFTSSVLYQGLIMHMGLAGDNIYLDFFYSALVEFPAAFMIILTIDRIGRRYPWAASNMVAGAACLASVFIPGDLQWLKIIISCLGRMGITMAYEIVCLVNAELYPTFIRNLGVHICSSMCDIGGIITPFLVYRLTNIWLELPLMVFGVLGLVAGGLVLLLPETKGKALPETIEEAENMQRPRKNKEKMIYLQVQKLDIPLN
Further details: method as in PMID 14576340. Conditions: reference inhibitor; cited from earlier work.

For the compound `COc1cc2nc(N3CCN(C(=O)c4ccco4)CC3)nc(N)c2cc1OC` [Prazosin], the IC50 is more than 100 µM.
